One test concerns the target α4β1 (Homo sapiens, UniProt P05556+P13612). The test can be described thus: Ramos Cell Adhesion Assay (α4β1 Mediated Adhesion/VCAM-1). As to conditions: read-out: α4β1 IC50; Ramos cells adhering to recombinant hVCAM-1. Here is the method: Ramos Cell Adhesion Assay (α4β1 Mediated Adhesion/VCAM-1)
Immulon 96 well plates (Dynex) were coated with 100 μL recombinant hVCAM-1 at 4.0 μg/mL in 0.05 M NaCO3 buffer pH 9.0 overnight at 4° C. (R&D Systems). Plates were washed 2 times in PBS with 1% BSA and blocked for 1 h@room temperature in this buffer. PBS was removed and compounds to be tested (50 μL) were added at 2× concentration. Ramos cells, (50 μL at 2×10^6/mL) labeled with 5 μM Calcein AM (Molecular Probes) for 1 h at 37° C., were added to each well and allowed to adhere for 1 h at room temperature. Plates were washed 4 × in PBS+1% BSA and cells were lysed for 15 minutes in 100 μL of 1 M Tris pH 8.0 with 1% SDS. The plate was read at 485 nm excitation and 530 nm emission.

Protein sequences, listed by entry. Tags and fused reporters are not part of them. Residues count along the entry.
UniProt P05556, 21-798 limits assumed: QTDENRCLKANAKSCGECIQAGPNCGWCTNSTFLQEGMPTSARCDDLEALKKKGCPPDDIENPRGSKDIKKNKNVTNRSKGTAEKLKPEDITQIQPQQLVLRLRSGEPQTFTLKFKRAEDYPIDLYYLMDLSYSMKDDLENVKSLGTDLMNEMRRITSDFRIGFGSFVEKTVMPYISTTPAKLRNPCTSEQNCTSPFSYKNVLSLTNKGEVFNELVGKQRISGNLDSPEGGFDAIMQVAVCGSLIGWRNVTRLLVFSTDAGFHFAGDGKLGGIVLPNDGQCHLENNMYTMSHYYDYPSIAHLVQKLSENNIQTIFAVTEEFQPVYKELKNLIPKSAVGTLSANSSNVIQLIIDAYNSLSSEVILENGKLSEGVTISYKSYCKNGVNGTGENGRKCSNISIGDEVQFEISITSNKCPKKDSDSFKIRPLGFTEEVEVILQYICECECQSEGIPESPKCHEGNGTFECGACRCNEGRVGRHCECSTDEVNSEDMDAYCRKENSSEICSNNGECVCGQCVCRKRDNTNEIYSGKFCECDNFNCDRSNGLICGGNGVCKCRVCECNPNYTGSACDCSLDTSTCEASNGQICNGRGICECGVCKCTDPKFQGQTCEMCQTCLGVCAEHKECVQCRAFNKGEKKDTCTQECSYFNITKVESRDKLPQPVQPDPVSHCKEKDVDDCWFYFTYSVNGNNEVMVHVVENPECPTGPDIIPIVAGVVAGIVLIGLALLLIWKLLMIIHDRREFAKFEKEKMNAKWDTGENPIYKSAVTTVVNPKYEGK
UniProt P13612, 34-1032 limits assumed: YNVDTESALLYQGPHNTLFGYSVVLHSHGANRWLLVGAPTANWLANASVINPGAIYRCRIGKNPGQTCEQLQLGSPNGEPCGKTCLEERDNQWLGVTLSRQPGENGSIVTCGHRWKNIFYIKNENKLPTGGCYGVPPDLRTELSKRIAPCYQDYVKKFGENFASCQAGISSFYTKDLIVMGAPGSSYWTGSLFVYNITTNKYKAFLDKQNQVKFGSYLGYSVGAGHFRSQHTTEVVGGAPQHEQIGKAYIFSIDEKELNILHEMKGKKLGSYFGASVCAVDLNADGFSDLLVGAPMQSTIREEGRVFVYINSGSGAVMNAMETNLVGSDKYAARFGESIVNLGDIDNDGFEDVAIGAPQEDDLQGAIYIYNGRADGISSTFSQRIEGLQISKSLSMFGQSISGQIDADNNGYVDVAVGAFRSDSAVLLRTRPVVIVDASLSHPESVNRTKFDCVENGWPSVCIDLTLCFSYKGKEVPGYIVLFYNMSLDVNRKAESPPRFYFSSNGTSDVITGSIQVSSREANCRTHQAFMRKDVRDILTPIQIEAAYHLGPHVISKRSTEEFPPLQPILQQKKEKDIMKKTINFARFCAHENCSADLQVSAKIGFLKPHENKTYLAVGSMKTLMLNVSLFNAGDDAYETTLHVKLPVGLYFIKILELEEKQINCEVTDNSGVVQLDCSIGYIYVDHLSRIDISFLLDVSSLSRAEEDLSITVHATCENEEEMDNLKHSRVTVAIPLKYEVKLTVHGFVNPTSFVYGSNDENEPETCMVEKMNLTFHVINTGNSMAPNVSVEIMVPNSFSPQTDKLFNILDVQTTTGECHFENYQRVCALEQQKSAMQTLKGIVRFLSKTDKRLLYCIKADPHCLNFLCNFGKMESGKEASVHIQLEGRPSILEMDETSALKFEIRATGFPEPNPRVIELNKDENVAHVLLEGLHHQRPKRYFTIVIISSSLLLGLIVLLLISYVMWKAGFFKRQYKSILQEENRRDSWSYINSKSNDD
UniProt P26010, 20-798 limits assumed: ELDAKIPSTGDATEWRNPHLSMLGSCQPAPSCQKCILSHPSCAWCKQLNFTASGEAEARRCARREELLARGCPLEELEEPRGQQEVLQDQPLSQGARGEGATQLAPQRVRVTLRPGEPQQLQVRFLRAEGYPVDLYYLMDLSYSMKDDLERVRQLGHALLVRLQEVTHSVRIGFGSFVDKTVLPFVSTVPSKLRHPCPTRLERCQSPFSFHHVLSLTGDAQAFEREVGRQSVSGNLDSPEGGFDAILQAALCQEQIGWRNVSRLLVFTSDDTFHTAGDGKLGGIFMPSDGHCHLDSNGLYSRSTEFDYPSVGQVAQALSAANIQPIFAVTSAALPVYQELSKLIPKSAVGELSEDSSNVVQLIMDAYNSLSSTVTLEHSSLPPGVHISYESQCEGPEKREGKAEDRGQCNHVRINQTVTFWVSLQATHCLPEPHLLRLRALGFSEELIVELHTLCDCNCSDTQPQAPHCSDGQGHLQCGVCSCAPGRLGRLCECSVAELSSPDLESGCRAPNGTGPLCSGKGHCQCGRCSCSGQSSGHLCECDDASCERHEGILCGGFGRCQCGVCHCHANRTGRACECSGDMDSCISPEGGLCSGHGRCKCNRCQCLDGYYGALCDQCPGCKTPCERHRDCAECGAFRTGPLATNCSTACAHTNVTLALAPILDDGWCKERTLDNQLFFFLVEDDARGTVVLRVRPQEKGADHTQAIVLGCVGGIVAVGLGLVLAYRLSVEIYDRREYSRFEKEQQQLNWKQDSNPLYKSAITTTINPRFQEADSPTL

Another test concerns the target human α4β7 integrin (Homo sapiens, UniProt P13612+P26010). The test can be described thus: α4β7-K562 Cell Adhesion Assay (α4β7 Mediated Adhesion/MAdCAM-1). As to conditions: read-out: α4β7 IC50; K562 cells expressing human α4β7 adhering to FLAG-hMAdCAM-1, 1 mM Mn2+. The protocol: α4β7-K562 Cell Adhesion Assay (α4β7 Mediated Adhesion/MAdCAM-1)
M2 anti-FLAG Antibody Coated 96-well plates (Sigma) were coated for 1 hour at 4° C. with 2-8 μL/well recombinant FLAG-hMAdCAM-1 contained in 100 μL of Dulbecco's PBS, pH 7.4, with 1% BSA and 1 mM Mn^2+ (PBS-BSA-Mn). Plates were washed once with PBS-BSA-Mn. Buffer was removed and compounds to be tested (50 μL) were added at 2× concentration. Stably transfected K562 cells expressing human α4β7 integrin, (50 μL at 2×10^6/mL) that had been labeled with 100 μg/mL carboxymethyl fluorescein diacetate succinimidyl ester (CFDA-SE; Molecular Probes) for 15 min at 37° C. were added to each well and allowed to adhere for 1 h at room temperature. Plates were washed 4× in PBS-BSA-Mn and then cells were lysed for 2 min by addtion of 100 μL of PBS without Ca^2+, Mg^2+ supplemented with 0.1 M NaOH. The plate was read on a 96-well fluorescent plate reader at 485 nm excitation and 530 nm emission.

pIC50: −log10 of the molar value. Some results are limits rather than exact numbers.

In general, pIC50 refers to −log10 of the IC50, conventionally taken in molar units. `COc1cnn(C)c(=O)c1-c1ccc(C[C@H](NC(=O)NN2CCN(CCO)CC2)C(=O)O)cc1`: the pIC50 is less than 5.30 on α4β1 and 6.42 at human α4β7 integrin.

In the case of `COc1cnn(C)c(=O)c1-c1ccc(C[C@H](NC(=O)N(c2ccc(NC(C)C)cc2)C(C)C)C(=O)O)cc1`, the pIC50 was less than 5.30 at α4β1 and 6.62 on human α4β7 integrin.

Regarding `CCN(C(=O)N[C@@H](Cc1ccc(-c2c(OC)cnn(C)c2=O)cc1)C(=O)O)c1cccc2ccccc12`, the results for the pIC50 at α4β1 and at human α4β7 integrin were less than 5.30 and 6.35, respectively.

Source of the values: patent publication US20050209232A1, “Pyridazinone ureas as antagonists of alpha4 integrins” (priority 2004, published 2005).
